Columns and labels:
[1] = Thermal stability of native GOx and GOx nanocapsules at 60° C. (Amplex Red Glucose/Glucose Oxidase Assay Kit); assay type: physicochemical; conditions: after 4 hours
Procedure: (§1) FIG. 4A is a graph showing enzyme stability (% residual activity) of native GOx (bottom curve) and GOx nanogels (top curve) as a function of time (minutes) at 60° C. in PBS buffer. FIG. 4B is a graph comparing catalytic activity of native enzymes (mixture of GOx and CAT, 0.15 mg/mL, weight ratio of GOx to CAT:4:1) and enzyme nanocapsules incubated with a 400 mg/dL glucose saline solution after incubation with proteinase K (1 mg/mL) at 37° C. for 24 hours. FIG. 4C is a graph showing remained enzymatic activity of native GOx and GOx nanocapsules in microgels (without CAT or CAT nanocapsules) incubated with a 400 mg/dL glucose saline solution, quantified over time by the Amplex® Red Glucose/Glucose Oxidase Assay Kit.
(§2) The enzymatic activity of native GOx and GOx nanocapsules was tested by the Amplex® Red Glucose/Glucose Oxidase Assay Kit (Invitrogen). Thermal stability of the native and the GOx nanocapsules was compared by incubating at 60° C. After 4 hours, the enzyme nanocapsule retained 70% of its original activity, whereas the native GOx retained only 20% of its original activity, as shown in FIG. 4A. The enhanced thermal stability of the enzyme nanocapsules is likely due to covalent attachment to the protective polymer. […]

[2] = Remaining enzyme activity of GOx after encapsulation in microgels incubated with 400 mg/dL glucose saline solution; assay type: physicochemical; conditions: after 3 hours
Procedure: as §1, §2

glucose oxidase [native GOx]
retained original enzymatic activity [1]: 20% | retained enzyme activity after encapsulation in microgels [2]: about 60%
